Test results published in US20120087985A1, “SMALL PEPTIDE SEQUENCES FOR STABILIZING BIOMOLECULES” (Biodel Inc., priority 2010, published 2012).

Assay: Light microscopy of SPS in suspension
Conditions: mildly acidic range of pH about 5, light microscopy image

H-Aspartic Acid-Tryptophan-Aspartic Acid —OH
particle size range: 300-900 μm
